Some tests of the compounds listed are not included; inactive here does not mean inactive elsewhere.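 Results reflect a 48-hour exposure of cells in 96-well plates to compound at five concentrations. Here, GI50 denotes the concentration required for 50% inhibition of growth. TGI marks complete inhibition of growth.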
How the values were obtained:
Experiment in all cases: inhibition of tumour cell growth, NCI panel, 48 h; in the data active = GI50 below about 0.43 µM; inactive = the rest
786-0 renal = test system: 786-0 renal
A498 renal = test system: A498 renal
A549 NSCLC = test system: A549 NSCLC
ACHN renal = test system: ACHN renal
BT-549 breast = test system: BT-549 breast
CAKI-1 renal = test system: CAKI-1 renal
CCRF-CEM leukemia = test system: CCRF-CEM leukemia
COLO 205 colon = test system: COLO 205 colon
DU-145 prostate = test system: DU-145 prostate
EKVX NSCLC = test system: EKVX NSCLC
HCC-2998 colon = test system: HCC-2998 colon
HCT-116 colon = test system: HCT-116 colon
HCT-15 colon = test system: HCT-15 colon
HL-60(TB) leukemia = test system: HL-60(TB) leukemia
HOP-62 NSCLC = test system: HOP-62 NSCLC
HOP-92 NSCLC = test system: HOP-92 NSCLC
HS 578T breast = test system: HS 578T breast
HT29 colon = test system: HT29 colon
IGROV1 ovarian = test system: IGROV1 ovarian
K-562 leukemia = test system: K-562 leukemia
KM12 colon = test system: KM12 colon
LOX IMVI melanoma = test system: LOX IMVI melanoma
M14 melanoma = test system: M14 melanoma
MALME-3M melanoma = test system: MALME-3M melanoma
MCF7 breast = test system: MCF7 breast
MDA-MB-231 breast = test system: MDA-MB-231 breast
MDA-MB-435 = test system: MDA-MB-435
MDA-N = test system: MDA-N
MOLT-4 leukemia = test system: MOLT-4 leukemia
NCI-H226 lung = test system: NCI-H226 lung
NCI-H23 lung = test system: NCI-H23 lung
NCI-H322M lung = test system: NCI-H322M lung
NCI-H460 lung = test system: NCI-H460 lung
NCI-H522 lung = test system: NCI-H522 lung
NCI/ADR-RES ovarian = test system: NCI/ADR-RES ovarian
OVCAR-3 ovarian = test system: OVCAR-3 ovarian
OVCAR-4 ovarian = test system: OVCAR-4 ovarian
OVCAR-5 ovarian = test system: OVCAR-5 ovarian
OVCAR-8 ovarian = test system: OVCAR-8 ovarian
PC-3 prostate = test system: PC-3 prostate
RPMI-8226 leukemia = test system: RPMI-8226 leukemia
RXF 393 renal = test system: RXF 393 renal
SF-268 CNS = test system: SF-268 CNS
SF-295 CNS = test system: SF-295 CNS
SF-539 CNS = test system: SF-539 CNS
SK-MEL-2 melanoma = test system: SK-MEL-2 melanoma
SK-MEL-28 melanoma = test system: SK-MEL-28 melanoma
SK-MEL-5 melanoma = test system: SK-MEL-5 melanoma
SK-OV-3 ovarian = test system: SK-OV-3 ovarian
SN12C renal = test system: SN12C renal
SNB-19 CNS = test system: SNB-19 CNS
SNB-75 CNS = test system: SNB-75 CNS
SR leukemia = test system: SR leukemia
SW-620 colon = test system: SW-620 colon
T-47D breast = test system: T-47D breast
TK-10 renal = test system: TK-10 renal
U251 CNS = test system: U251 CNS
UACC-257 melanoma = test system: UACC-257 melanoma
UACC-62 melanoma = test system: UACC-62 melanoma
UO-31 renal = test system: UO-31 renal

CN1CCC(OC(=O)C(O)(c2ccccc2)c2cccc3c2OC(C)(C)C3)CC1 (stereo unspecified)
86.7 µM: TGI (SK-MEL-2 melanoma)
69.6 µM: TGI (HCC-2998 colon)
46.4 µM: TGI (IGROV1 ovarian)
33.5 µM: TGI (M14 melanoma)
90.3 µM: TGI (HS 578T breast)
70.5 µM: TGI (LOX IMVI melanoma)
81.3 µM: TGI (SNB-75 CNS)
37 µM: TGI (SK-MEL-28 melanoma) | TGI (UACC-257 melanoma)
89.2 µM: TGI (HOP-92 NSCLC)
65.8 µM: TGI (HT29 colon)
90.1 µM: TGI (K-562 leukemia)
> 100 µM: TGI (786-0 renal) | TGI (A498 renal) | TGI (A549 NSCLC) | TGI (ACHN renal) | TGI (BT-549 breast) | TGI (CAKI-1 renal) | TGI (CCRF-CEM leukemia) | TGI (DU-145 prostate) | TGI (EKVX NSCLC) | TGI (HCT-116 colon) | TGI (HCT-15 colon) | TGI (HOP-62 NSCLC) | TGI (KM12 colon) | TGI (MCF7 breast) | TGI (MDA-MB-231 breast) | TGI (MDA-MB-435) | TGI (MDA-N) | TGI (NCI-H226 lung) | TGI (NCI-H23 lung) | TGI (NCI-H322M lung) | TGI (NCI-H460 lung) | TGI (NCI-H522 lung) | TGI (NCI/ADR-RES ovarian) | TGI (OVCAR-3 ovarian) | TGI (OVCAR-4 ovarian) | TGI (OVCAR-5 ovarian) | TGI (OVCAR-8 ovarian) | TGI (PC-3 prostate) | TGI (RXF 393 renal) | TGI (SF-268 CNS) | TGI (SF-295 CNS) | TGI (SF-539 CNS) | TGI (SK-OV-3 ovarian) | TGI (SN12C renal) | TGI (SNB-19 CNS) | TGI (SW-620 colon) | TGI (TK-10 renal) | TGI (U251 CNS) | TGI (UACC-62 melanoma) | TGI (UO-31 renal)
99.4 µM: TGI (T-47D breast)
91.2 µM: TGI (MOLT-4 leukemia)
87.3 µM: TGI (HL-60(TB) leukemia)
53.7 µM: TGI (SR leukemia)
52.8 µM: TGI (COLO 205 colon)
84 µM: TGI (RPMI-8226 leukemia)
40.4 µM: TGI (MALME-3M melanoma)
31.6 µM: TGI (SK-MEL-5 melanoma)

C=C(C)C#CC(O)(C(=O)OC1CN2CCC1CC2)c1ccccc1 (stereo unspecified)
inactive: GI50 (786-0 renal) > 100 µM | GI50 (A498 renal) > 100 µM | GI50 (A549 NSCLC) > 100 µM | GI50 (ACHN renal) > 100 µM | GI50 (BT-549 breast) > 100 µM | GI50 (CAKI-1 renal) > 100 µM | GI50 (CCRF-CEM leukemia) > 100 µM | GI50 (COLO 205 colon) > 100 µM | GI50 (DU-145 prostate) > 100 µM | GI50 (EKVX NSCLC) > 100 µM | GI50 (HCC-2998 colon) > 100 µM | GI50 (HCT-116 colon) > 100 µM | GI50 (HCT-15 colon) > 100 µM | GI50 (HL-60(TB) leukemia) > 100 µM | GI50 (HOP-62 NSCLC) > 100 µM | GI50 (HOP-92 NSCLC) > 100 µM | GI50 (HS 578T breast) > 100 µM | GI50 (HT29 colon) > 100 µM | GI50 (IGROV1 ovarian) > 100 µM | GI50 (K-562 leukemia) 36.5 µM | GI50 (KM12 colon) > 100 µM | GI50 (LOX IMVI melanoma) > 100 µM | GI50 (M14 melanoma) > 100 µM | GI50 (MALME-3M melanoma) > 100 µM | GI50 (MCF7 breast) > 100 µM | GI50 (MDA-MB-231 breast) > 100 µM | GI50 (MDA-MB-435) > 100 µM | GI50 (MDA-N) > 100 µM | GI50 (MOLT-4 leukemia) > 100 µM | GI50 (NCI-H226 lung) > 100 µM | GI50 (NCI-H23 lung) > 100 µM | GI50 (NCI-H460 lung) > 100 µM | GI50 (NCI/ADR-RES ovarian) > 100 µM | GI50 (OVCAR-3 ovarian) > 100 µM | GI50 (OVCAR-4 ovarian) > 100 µM | GI50 (OVCAR-5 ovarian) > 100 µM | GI50 (OVCAR-8 ovarian) > 100 µM | GI50 (PC-3 prostate) > 100 µM | GI50 (RPMI-8226 leukemia) > 100 µM | GI50 (RXF 393 renal) > 100 µM | GI50 (SF-268 CNS) > 100 µM | GI50 (SF-295 CNS) > 100 µM | GI50 (SF-539 CNS) > 100 µM | GI50 (SK-MEL-2 melanoma) > 100 µM | GI50 (SK-MEL-28 melanoma) > 100 µM | GI50 (SK-MEL-5 melanoma) > 100 µM | GI50 (SK-OV-3 ovarian) > 100 µM | GI50 (SN12C renal) > 100 µM | GI50 (SNB-19 CNS) > 100 µM | GI50 (SNB-75 CNS) > 100 µM | GI50 (SR leukemia) > 100 µM | GI50 (SW-620 colon) > 100 µM | GI50 (T-47D breast) > 100 µM | GI50 (TK-10 renal) > 100 µM | GI50 (U251 CNS) > 100 µM | GI50 (UACC-257 melanoma) > 100 µM | GI50 (UACC-62 melanoma) > 100 µM | GI50 (UO-31 renal) > 100 µM
> 100 µM: TGI (786-0 renal) | TGI (A498 renal) | TGI (A549 NSCLC) | TGI (ACHN renal) | TGI (BT-549 breast) | TGI (CAKI-1 renal) | TGI (CCRF-CEM leukemia) | TGI (COLO 205 colon) | TGI (DU-145 prostate) | TGI (EKVX NSCLC) | TGI (HCC-2998 colon) | TGI (HCT-116 colon) | TGI (HCT-15 colon) | TGI (HL-60(TB) leukemia) | TGI (HOP-62 NSCLC) | TGI (HOP-92 NSCLC) | TGI (HS 578T breast) | TGI (HT29 colon) | TGI (IGROV1 ovarian) | TGI (K-562 leukemia) | TGI (KM12 colon) | TGI (LOX IMVI melanoma) | TGI (M14 melanoma) | TGI (MALME-3M melanoma) | TGI (MCF7 breast) | TGI (MDA-MB-231 breast) | TGI (MDA-MB-435) | TGI (MDA-N) | TGI (MOLT-4 leukemia) | TGI (NCI-H226 lung) | TGI (NCI-H23 lung) | TGI (NCI-H460 lung) | TGI (NCI/ADR-RES ovarian) | TGI (OVCAR-3 ovarian) | TGI (OVCAR-4 ovarian) | TGI (OVCAR-5 ovarian) | TGI (OVCAR-8 ovarian) | TGI (PC-3 prostate) | TGI (RPMI-8226 leukemia) | TGI (RXF 393 renal) | TGI (SF-268 CNS) | TGI (SF-295 CNS) | TGI (SF-539 CNS) | TGI (SK-MEL-2 melanoma) | TGI (SK-MEL-28 melanoma) | TGI (SK-MEL-5 melanoma) | TGI (SK-OV-3 ovarian) | TGI (SN12C renal) | TGI (SNB-19 CNS) | TGI (SNB-75 CNS) | TGI (SR leukemia) | TGI (SW-620 colon) | TGI (T-47D breast) | TGI (TK-10 renal) | TGI (U251 CNS) | TGI (UACC-257 melanoma) | TGI (UACC-62 melanoma) | TGI (UO-31 renal)

From PubChem BioAssay (NCI)
